Data as given in PubChem BioAssay (NCI).
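Grown in 96-well plates, cells were treated for 48 hours with each compound at five concentrations. Insufficient inhibition: endpoint recorded as highest concentration tested. At the GI50, growth is halved. TGI: concentration producing complete growth inhibition.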

How the values were obtained:
Assay in all cases: NCI-60 cell line screen, 48 h
SR leukemia = system: SR leukemia
OVCAR-5 ovarian = system: OVCAR-5 ovarian
EKVX NSCLC = system: EKVX NSCLC
SN12C renal = system: SN12C renal
UO-31 renal = system: UO-31 renal
MDA-MB-231 breast = system: MDA-MB-231 breast
U251 CNS = system: U251 CNS
NCI-H522 lung = system: NCI-H522 lung
A549 NSCLC = system: A549 NSCLC
NCI-H226 lung = system: NCI-H226 lung
HCC-2998 colon = system: HCC-2998 colon
HCT-15 colon = system: HCT-15 colon
SW-620 colon = system: SW-620 colon
RPMI-8226 leukemia = system: RPMI-8226 leukemia
NCI-H460 lung = system: NCI-H460 lung
MCF7 breast = system: MCF7 breast
SF-295 CNS = system: SF-295 CNS
UACC-62 melanoma = system: UACC-62 melanoma
SK-MEL-28 melanoma = system: SK-MEL-28 melanoma
KM12 colon = system: KM12 colon
T-47D breast = system: T-47D breast
HT29 colon = system: HT29 colon
OVCAR-3 ovarian = system: OVCAR-3 ovarian
OVCAR-8 ovarian = system: OVCAR-8 ovarian
M14 melanoma = system: M14 melanoma
TK-10 renal = system: TK-10 renal
PC-3 prostate = system: PC-3 prostate
SF-539 CNS = system: SF-539 CNS
HOP-92 NSCLC = system: HOP-92 NSCLC
K-562 leukemia = system: K-562 leukemia
NCI-H322M lung = system: NCI-H322M lung
LOX IMVI melanoma = system: LOX IMVI melanoma
RXF 393 renal = system: RXF 393 renal
HOP-62 NSCLC = system: HOP-62 NSCLC
IGROV1 ovarian = system: IGROV1 ovarian
SF-268 CNS = system: SF-268 CNS
DU-145 prostate = system: DU-145 prostate
SNB-19 CNS = system: SNB-19 CNS
MALME-3M melanoma = system: MALME-3M melanoma
SK-MEL-2 melanoma = system: SK-MEL-2 melanoma
SK-OV-3 ovarian = system: SK-OV-3 ovarian
786-0 renal = system: 786-0 renal
UACC-257 melanoma = system: UACC-257 melanoma
NCI-H23 lung = system: NCI-H23 lung
CAKI-1 renal = system: CAKI-1 renal
MOLT-4 leukemia = system: MOLT-4 leukemia
ACHN renal = system: ACHN renal
SNB-75 CNS = system: SNB-75 CNS
CCRF-CEM leukemia = system: CCRF-CEM leukemia
MDA-MB-435 = system: MDA-MB-435
NCI/ADR-RES ovarian = system: NCI/ADR-RES ovarian
OVCAR-4 ovarian = system: OVCAR-4 ovarian
BT-549 breast = system: BT-549 breast
SK-MEL-5 melanoma = system: SK-MEL-5 melanoma
HL-60(TB) leukemia = system: HL-60(TB) leukemia

O=c1ccc(Oc2ccc([N+](=O)[O-])cc2[N+](=O)[O-])nn1-c1ccc([N+](=O)[O-])cc1[N+](=O)[O-]
GI50 (SR leukemia): 2.01 µM
TGI (SR leukemia): 6.6 µM
GI50 (OVCAR-5 ovarian): 1.87 µM
TGI (OVCAR-5 ovarian): 3.87 µM
GI50 (EKVX NSCLC): 1.68 µM
TGI (EKVX NSCLC): 3.33 µM
GI50 (SN12C renal): 1.87 µM
TGI (SN12C renal): 3.66 µM
GI50 (UO-31 renal): 1.43 µM
TGI (UO-31 renal): 2.87 µM
GI50 (MDA-MB-231 breast): 1.9 µM
TGI (MDA-MB-231 breast): 3.62 µM
GI50 (U251 CNS): 1.82 µM
TGI (U251 CNS): 3.44 µM
GI50 (NCI-H522 lung): 1.9 µM
TGI (NCI-H522 lung): 4.55 µM
GI50 (A549 NSCLC): 8.28 µM
TGI (A549 NSCLC): 25.7 µM
GI50 (NCI-H226 lung): 2.2 µM
TGI (NCI-H226 lung): 5.51 µM
GI50 (HCC-2998 colon): 1.82 µM
TGI (HCC-2998 colon): 3.39 µM
GI50 (HCT-15 colon): 1.63 µM
TGI (HCT-15 colon): 3.18 µM
GI50 (SW-620 colon): 2.35 µM
TGI (SW-620 colon): 6.35 µM
GI50 (RPMI-8226 leukemia): 2.36 µM
TGI (RPMI-8226 leukemia): 6.6 µM
GI50 (NCI-H460 lung): 3.61 µM
TGI (NCI-H460 lung): 13.4 µM
GI50 (MCF7 breast): 1.63 µM
TGI (MCF7 breast): 3.88 µM
GI50 (SF-295 CNS): 2.93 µM
TGI (SF-295 CNS): 10.3 µM
GI50 (UACC-62 melanoma): 1.71 µM
TGI (UACC-62 melanoma): 3.38 µM
GI50 (SK-MEL-28 melanoma): 1.88 µM
TGI (SK-MEL-28 melanoma): 3.52 µM
GI50 (KM12 colon): 10.3 µM
TGI (KM12 colon): 24 µM
GI50 (T-47D breast): 2.17 µM
TGI (T-47D breast): 5.77 µM
GI50 (HT29 colon): 2.25 µM
TGI (HT29 colon): 4.77 µM
GI50 (OVCAR-3 ovarian): 1.69 µM
TGI (OVCAR-3 ovarian): 3.05 µM
GI50 (OVCAR-8 ovarian): 1.91 µM
TGI (OVCAR-8 ovarian): 3.54 µM
GI50 (M14 melanoma): 1.71 µM
TGI (M14 melanoma): 3.43 µM
GI50 (TK-10 renal): 1.6 µM
TGI (TK-10 renal): 3.07 µM
GI50 (PC-3 prostate): 2.25 µM
TGI (PC-3 prostate): 4.6 µM
GI50 (SF-539 CNS): 1.72 µM
TGI (SF-539 CNS): 3.15 µM
GI50 (HOP-92 NSCLC): 1.89 µM
TGI (HOP-92 NSCLC): 3.74 µM
GI50 (K-562 leukemia): 2.62 µM
TGI (K-562 leukemia): 8.67 µM
GI50 (NCI-H322M lung): 1.63 µM
TGI (NCI-H322M lung): 3.2 µM
GI50 (LOX IMVI melanoma): 1.51 µM
TGI (LOX IMVI melanoma): 3.17 µM
GI50 (RXF 393 renal): 1.88 µM
TGI (RXF 393 renal): 3.42 µM
GI50 (HOP-62 NSCLC): 1.59 µM
TGI (HOP-62 NSCLC): 3.37 µM
GI50 (IGROV1 ovarian): 1.94 µM
TGI (IGROV1 ovarian): 4.05 µM
GI50 (SF-268 CNS): 1.66 µM
TGI (SF-268 CNS): 3.29 µM
GI50 (DU-145 prostate): 1.71 µM
TGI (DU-145 prostate): 3.1 µM
GI50 (SNB-19 CNS): 1.9 µM
TGI (SNB-19 CNS): 3.5 µM
GI50 (MALME-3M melanoma): 1.68 µM
TGI (MALME-3M melanoma): 3.45 µM
GI50 (SK-MEL-2 melanoma): 2.34 µM
TGI (SK-MEL-2 melanoma): 6.39 µM
GI50 (SK-OV-3 ovarian): 8.71 µM
TGI (SK-OV-3 ovarian): 22.2 µM
GI50 (786-0 renal): 1.81 µM
TGI (786-0 renal): 3.34 µM
GI50 (UACC-257 melanoma): 1.83 µM
TGI (UACC-257 melanoma): 3.59 µM
GI50 (NCI-H23 lung): 1.8 µM
TGI (NCI-H23 lung): 3.6 µM
GI50 (CAKI-1 renal): 1.61 µM
TGI (CAKI-1 renal): 2.97 µM
GI50 (MOLT-4 leukemia): 2.54 µM
TGI (MOLT-4 leukemia): 6.99 µM
GI50 (ACHN renal): 1.71 µM
TGI (ACHN renal): 3.19 µM
GI50 (SNB-75 CNS): 1.5 µM
TGI (SNB-75 CNS): 3.31 µM
GI50 (CCRF-CEM leukemia): 3.17 µM
TGI (CCRF-CEM leukemia): 9.89 µM
GI50 (MDA-MB-435): 1.72 µM
TGI (MDA-MB-435): 3.44 µM
GI50 (NCI/ADR-RES ovarian): 1.82 µM
TGI (NCI/ADR-RES ovarian): 3.46 µM
GI50 (OVCAR-4 ovarian): 1.64 µM
TGI (OVCAR-4 ovarian): 3.08 µM
GI50 (BT-549 breast): 1.57 µM
TGI (BT-549 breast): 2.99 µM
GI50 (SK-MEL-5 melanoma): 1.97 µM
TGI (SK-MEL-5 melanoma): 3.8 µM
GI50 (HL-60(TB) leukemia): 1.43 µM
TGI (HL-60(TB) leukemia): 4.29 µM
